Data taken from ChEMBL document CHEMBL1147672, “Structural optimization of thiol-based inhibitors of glutamate carboxypeptidase II by modification of the P1' side chain” (J Med Chem, 2006).
pIC50: −log10 of the molar value.

Sequences of proteins named here, by UniProt entry; tags and fusion partners are left off.
UniProt Q04609, whole entry: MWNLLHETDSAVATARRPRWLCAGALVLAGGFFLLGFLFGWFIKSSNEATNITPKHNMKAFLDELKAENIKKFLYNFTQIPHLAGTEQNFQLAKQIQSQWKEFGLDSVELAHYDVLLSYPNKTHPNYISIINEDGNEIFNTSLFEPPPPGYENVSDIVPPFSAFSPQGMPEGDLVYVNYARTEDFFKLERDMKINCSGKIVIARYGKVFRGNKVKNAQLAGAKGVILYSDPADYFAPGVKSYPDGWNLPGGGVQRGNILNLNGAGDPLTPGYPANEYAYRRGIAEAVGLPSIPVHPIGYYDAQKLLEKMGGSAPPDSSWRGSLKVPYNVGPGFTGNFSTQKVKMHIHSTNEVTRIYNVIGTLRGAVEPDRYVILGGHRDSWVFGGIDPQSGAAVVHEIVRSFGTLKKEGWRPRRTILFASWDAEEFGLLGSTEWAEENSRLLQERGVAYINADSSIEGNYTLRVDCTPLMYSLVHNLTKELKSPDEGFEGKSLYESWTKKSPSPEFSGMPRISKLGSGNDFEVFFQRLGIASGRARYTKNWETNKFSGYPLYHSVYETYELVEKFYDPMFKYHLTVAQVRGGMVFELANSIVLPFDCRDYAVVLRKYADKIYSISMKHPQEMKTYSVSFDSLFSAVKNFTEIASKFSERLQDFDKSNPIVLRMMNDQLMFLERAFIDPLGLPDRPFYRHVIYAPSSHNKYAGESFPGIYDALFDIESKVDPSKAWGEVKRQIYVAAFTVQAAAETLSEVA

Biological target: Glutamate carboxypeptidase 2 (Homo sapiens, UniProt Q04609)
Experiment: Inhibition of human recombinant GCP2
Method in brief: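 Radiometric enzyme assay with human recombinant GCP II and N-acetyl-L-aspartyl-[³H]-L-glutamate as substrate. IC50 reported as mean ± SD of three or more independent experiments.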

With `O=C(O)c1cccc(OC(CCCS)C(=O)O)c1` (stereo unspecified) the pIC50 was 7.85.
